Results: article PMC1090567, “S-Nitrosothiols modulate G protein-coupled receptor signaling in a reversible and highly receptor-specific manner” (BMC Cell Biology, 2005)

Sequences of proteins named here, by UniProt entry; tags and fusion partners are left off.
UniProt P33535, whole entry: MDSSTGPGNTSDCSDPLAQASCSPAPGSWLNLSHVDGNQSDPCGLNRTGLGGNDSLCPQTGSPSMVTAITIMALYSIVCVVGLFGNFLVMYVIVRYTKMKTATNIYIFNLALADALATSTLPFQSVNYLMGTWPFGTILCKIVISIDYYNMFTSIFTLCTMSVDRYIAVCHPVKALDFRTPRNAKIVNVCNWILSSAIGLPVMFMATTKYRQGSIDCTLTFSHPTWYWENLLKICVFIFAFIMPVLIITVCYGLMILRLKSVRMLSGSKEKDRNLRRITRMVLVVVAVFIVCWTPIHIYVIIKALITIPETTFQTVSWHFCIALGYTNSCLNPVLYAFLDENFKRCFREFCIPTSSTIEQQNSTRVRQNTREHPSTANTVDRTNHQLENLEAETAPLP

Target: T1, μ-opiate (Rattus norvegicus, UniProt P33535)
T1 construct: gene Oprm1; native receptor in rat forebrain P2 membranes
Test: […]GTPγS binding, rat forebrain membranes
Assay type: biochemical
Settings: agonist; control without GSNO; 10 μM GDP, pH 7.4, 25 °C

C[C@@H](NC(=O)[C@@H](N)Cc1ccc(O)cc1)C(=O)NCC(=O)N(C)[C@@H](Cc1ccccc1)C(=O)NCCO [DAMGO, [D-Ala^2, N-Me-Phe^4, Gly^5-ol]-enkephalin]
Control / log(EC50): -6.85 ± 0.09
